Data taken from patent US20230190933A1, “Immunologically Active Peptide-Biliverdin Conjugate, Preparation Method Therefor and Application Thereof” (priority 2020, published 2023).

What was measured:
[1] = system: important organs (heart, liver, spleen, lung, kidney); settings: B16-F10 model, intravenously every other day for 5 times, 2 mg kg^-1, after 30 days
[2] = system: mouse skin melanoma cells B16-F10; settings: B16-F10, different concentration gradients, in the dark

Substance | influence on important organs [1] | cytotoxicity (cell activity) [2]
biliverdin-Tb-VHFFKNIVTPTP conjugate [Example 17] | does not cause serious damage to important organs | 
biliverdin-Zn-NYSKPTDRQYHF conjugate [Example 3] |  | no obvious cytotoxicity
